{
  "sequences": {"note": "By UniProt entry, the sequences of proteins in these tests, tags left out.", "UniProt P61169, whole entry": "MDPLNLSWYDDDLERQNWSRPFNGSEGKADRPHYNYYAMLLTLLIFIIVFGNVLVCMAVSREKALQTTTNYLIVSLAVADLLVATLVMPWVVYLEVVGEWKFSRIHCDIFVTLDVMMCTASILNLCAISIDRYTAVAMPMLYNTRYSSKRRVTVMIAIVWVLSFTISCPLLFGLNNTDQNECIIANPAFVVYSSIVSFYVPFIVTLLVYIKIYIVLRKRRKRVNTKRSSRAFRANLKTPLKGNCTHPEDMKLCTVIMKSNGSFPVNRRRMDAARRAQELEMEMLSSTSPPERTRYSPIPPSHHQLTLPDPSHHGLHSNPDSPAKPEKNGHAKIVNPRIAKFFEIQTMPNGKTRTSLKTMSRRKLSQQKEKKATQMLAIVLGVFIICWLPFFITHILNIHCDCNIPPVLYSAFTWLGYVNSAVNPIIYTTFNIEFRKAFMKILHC"},
  "source": "ChEMBL document CHEMBL1157158",
  "about": "“Synthesis and neuropharmacological evaluation of 2-aryl- and alkylapomorphines” (Bioorg Med Chem, 2008)",
  "target": "D(2) dopamine receptor (Rattus norvegicus, UniProt P61169)",
  "assay": "Displacement of [3H]spiperone from rat dopamine D2 receptor in brain striatal membrane",
  "format": "cell membranes",
  "data": [
    {"smiles": "CN1CCc2cccc3c2[C@H]1Cc1ccc(O)c(O)c1-3.CN1CCc2cccc3c2[C@H]1Cc1ccc(O)c(O)c1-3.Cl.Cl.O", "note": "[APOMORPHINE HYDROCHLORIDE]", "values": [
      {"measurement": "IC50", "result": 87, "unit": "nM"},
      {"measurement": "Ki", "result": 47.7, "unit": "nM"}
    ]}
  ]
}
